Laboratory results from patent US20080226596A1, “Therapeutic compositions and methods useful in treating hepatitis” (priority 2006, published 2008).

System: WM9 cells
Assay: WM9 melanoma cell growth, MTT assay
Assay type: cell-based, human
Settings: day 6
Protocol: For cell proliferation assays, cells were grown in 10% FCS culture medium containing various amounts of IFNs and/or sodium stibogluconate in 96 well plates and cultured at 37° C. for 3 or 6 days as indicated. The numbers of viable cells in proliferation assays were determined by MTT assays as described in Phatak et al., J. Immunol. 167, 3391 (2001).
Median effect analysis (Chou et al., Adv. Enzyme Regul. 22, 27 (1984)), which provides the most general form of studying the interactions between drugs, was utilized to analyze the interaction between sodium stibogluconate and IFN-alpha or IFN-beta. Dose response curves were generated for each drug alone, and also the combinations. Median effect plots were generated for IFNs alone, sodium stibogluconate alone, and the combination. The combination index (CI) was determined and plotted vs. fraction affected (FA). Data were analyzed in both modes, mutually exclusive and mutually nonexclusive. The interaction between two mutually nonexclusive drugs is described by the Equation CI=D1/Dx1+D2/Dx2+D1D2/Dx1Dx2, where Dx1 and Dx2 are the doses of drug 1 and drug 2 that are required to inhibit growth x %. […] When CI<1, drugs are synergistic, when CI=1, drugs are additive, and when CI>1, drugs are antagonistic. […]

B1: IFN-beta: Recombinant human IFN-beta (protein, UniProt P01574 22-187, looked up)
Interferon beta: MSYNLLGFLQRSSNFQCQKLLWQLNGRLEYCLKDRMNFDIPEEIKQLQQFQKEDAALTIYEMLQNIFAIFRQDSSSTGWNETIVENLLANVYHQINHLKTVLEEKLEKEDFTRGKLMSSLHLKRYYGRILHYLKAKEYSHCAWTIVRVEILRNFYFINRLTGYLRN
- growth of WM9 cells with IFN alone: more potently
